Measurements as given in patent US10414769B2, “5,8-dimethyl-9-phenyl-5,8-dihydro-6H-pyrazolo[3,4-h]quinazolin-2-yl)-(1H-pyrazol-3-yl)-amines as IGF-1R/IR inhibitors” (Boehringer Ingelheim International GmbH, priority 2015, dated 2019).

By UniProt entry, the sequences of proteins in these tests, tags left out. Residues count along the entry.
UniProt P45983, whole entry: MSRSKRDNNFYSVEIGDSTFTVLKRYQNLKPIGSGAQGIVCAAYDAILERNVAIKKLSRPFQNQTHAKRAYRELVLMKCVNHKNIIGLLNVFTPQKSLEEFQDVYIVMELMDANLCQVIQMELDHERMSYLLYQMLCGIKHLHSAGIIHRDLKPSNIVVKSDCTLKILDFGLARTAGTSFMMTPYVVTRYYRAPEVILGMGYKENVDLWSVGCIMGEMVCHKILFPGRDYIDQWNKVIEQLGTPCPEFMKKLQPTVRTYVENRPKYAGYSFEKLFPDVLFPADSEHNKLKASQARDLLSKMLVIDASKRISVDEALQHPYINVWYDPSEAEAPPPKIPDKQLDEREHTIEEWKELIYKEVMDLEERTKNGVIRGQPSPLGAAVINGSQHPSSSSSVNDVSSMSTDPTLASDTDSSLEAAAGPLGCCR
UniProt P49137, whole entry: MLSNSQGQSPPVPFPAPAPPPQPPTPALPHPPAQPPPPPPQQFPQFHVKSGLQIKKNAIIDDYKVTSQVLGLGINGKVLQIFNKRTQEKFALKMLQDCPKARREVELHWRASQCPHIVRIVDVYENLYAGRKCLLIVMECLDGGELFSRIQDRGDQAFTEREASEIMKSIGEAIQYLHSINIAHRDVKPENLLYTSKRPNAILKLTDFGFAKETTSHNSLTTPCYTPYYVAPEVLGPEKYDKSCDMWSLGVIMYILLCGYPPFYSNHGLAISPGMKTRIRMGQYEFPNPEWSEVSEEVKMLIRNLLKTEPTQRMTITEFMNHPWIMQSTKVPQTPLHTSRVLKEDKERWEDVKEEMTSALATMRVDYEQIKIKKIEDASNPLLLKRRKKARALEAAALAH
UniProt O14757, whole entry: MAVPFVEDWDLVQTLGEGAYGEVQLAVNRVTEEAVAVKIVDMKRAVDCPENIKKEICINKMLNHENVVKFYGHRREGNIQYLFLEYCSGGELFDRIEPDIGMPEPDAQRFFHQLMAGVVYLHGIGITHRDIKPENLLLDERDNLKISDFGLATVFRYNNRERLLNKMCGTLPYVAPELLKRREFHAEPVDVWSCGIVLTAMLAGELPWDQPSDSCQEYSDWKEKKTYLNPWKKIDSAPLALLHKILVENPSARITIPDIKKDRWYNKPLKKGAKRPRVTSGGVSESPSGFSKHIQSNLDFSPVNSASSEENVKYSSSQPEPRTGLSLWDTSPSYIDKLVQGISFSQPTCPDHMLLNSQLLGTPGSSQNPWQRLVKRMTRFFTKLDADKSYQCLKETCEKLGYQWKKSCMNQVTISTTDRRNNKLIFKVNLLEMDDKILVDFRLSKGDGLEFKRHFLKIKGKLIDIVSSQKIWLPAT
UniProt P41279, whole entry: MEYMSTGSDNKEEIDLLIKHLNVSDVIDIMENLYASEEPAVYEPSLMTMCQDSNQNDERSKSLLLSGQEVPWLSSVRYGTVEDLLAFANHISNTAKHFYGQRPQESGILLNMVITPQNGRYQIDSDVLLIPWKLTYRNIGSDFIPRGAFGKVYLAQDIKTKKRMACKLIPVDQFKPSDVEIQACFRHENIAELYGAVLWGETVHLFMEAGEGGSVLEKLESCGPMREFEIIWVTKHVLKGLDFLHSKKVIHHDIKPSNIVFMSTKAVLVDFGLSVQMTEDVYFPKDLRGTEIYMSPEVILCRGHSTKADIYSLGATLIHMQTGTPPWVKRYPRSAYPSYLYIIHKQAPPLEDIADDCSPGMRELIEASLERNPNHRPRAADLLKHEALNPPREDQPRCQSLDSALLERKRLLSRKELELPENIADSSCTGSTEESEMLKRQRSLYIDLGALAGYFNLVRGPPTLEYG
UniProt O15530, whole entry: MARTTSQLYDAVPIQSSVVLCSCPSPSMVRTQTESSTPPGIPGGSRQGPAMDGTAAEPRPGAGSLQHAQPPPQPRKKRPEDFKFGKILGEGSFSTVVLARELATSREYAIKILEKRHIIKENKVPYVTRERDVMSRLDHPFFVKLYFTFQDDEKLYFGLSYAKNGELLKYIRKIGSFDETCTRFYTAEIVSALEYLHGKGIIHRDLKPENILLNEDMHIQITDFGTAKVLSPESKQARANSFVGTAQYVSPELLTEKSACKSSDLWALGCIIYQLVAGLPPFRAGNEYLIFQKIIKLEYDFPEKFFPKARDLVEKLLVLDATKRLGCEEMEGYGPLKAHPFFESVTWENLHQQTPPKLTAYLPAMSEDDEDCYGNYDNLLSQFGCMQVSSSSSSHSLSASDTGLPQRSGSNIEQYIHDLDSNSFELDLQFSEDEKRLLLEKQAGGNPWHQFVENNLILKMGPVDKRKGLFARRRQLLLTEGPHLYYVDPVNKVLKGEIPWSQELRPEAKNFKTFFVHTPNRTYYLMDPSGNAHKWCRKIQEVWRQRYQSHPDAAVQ
UniProt Q9H1R3, whole entry: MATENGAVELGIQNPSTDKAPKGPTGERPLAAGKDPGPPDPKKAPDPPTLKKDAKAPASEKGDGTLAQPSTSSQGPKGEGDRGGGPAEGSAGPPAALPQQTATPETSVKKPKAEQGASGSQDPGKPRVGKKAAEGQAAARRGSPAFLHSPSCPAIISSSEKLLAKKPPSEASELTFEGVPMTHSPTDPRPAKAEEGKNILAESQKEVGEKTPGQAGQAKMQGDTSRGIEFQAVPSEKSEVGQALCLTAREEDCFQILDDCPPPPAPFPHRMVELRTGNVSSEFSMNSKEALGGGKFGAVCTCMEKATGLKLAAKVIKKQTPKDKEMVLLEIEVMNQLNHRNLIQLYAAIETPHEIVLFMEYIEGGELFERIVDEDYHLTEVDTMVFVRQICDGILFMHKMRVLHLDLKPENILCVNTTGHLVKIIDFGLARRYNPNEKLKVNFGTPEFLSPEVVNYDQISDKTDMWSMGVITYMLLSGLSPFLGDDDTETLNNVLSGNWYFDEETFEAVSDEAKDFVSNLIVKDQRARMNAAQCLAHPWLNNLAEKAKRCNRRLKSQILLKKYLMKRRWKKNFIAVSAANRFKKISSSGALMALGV
UniProt P45984, whole entry: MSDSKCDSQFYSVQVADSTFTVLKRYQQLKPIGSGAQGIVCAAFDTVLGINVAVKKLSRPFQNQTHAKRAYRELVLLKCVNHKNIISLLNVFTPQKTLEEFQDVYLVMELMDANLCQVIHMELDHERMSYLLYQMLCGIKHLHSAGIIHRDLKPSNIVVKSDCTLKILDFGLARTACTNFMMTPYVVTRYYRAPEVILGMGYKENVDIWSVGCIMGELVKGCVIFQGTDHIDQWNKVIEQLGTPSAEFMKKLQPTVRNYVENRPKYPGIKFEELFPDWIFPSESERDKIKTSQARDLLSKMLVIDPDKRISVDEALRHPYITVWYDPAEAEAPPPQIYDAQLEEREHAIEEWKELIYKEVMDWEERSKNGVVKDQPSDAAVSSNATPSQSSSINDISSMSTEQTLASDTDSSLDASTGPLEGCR
UniProt P31751, whole entry: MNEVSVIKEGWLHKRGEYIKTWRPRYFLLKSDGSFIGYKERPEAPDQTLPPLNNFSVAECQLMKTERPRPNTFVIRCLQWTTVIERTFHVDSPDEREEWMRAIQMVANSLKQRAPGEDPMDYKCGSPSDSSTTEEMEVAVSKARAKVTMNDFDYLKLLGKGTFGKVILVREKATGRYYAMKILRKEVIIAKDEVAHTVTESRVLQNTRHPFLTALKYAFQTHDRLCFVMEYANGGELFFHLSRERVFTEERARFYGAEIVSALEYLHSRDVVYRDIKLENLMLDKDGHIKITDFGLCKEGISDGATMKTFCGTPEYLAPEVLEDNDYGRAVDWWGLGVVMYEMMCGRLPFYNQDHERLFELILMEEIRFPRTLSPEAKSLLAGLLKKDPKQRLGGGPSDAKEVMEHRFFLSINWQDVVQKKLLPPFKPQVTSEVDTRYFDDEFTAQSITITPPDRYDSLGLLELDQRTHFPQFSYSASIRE
UniProt P78362, whole entry: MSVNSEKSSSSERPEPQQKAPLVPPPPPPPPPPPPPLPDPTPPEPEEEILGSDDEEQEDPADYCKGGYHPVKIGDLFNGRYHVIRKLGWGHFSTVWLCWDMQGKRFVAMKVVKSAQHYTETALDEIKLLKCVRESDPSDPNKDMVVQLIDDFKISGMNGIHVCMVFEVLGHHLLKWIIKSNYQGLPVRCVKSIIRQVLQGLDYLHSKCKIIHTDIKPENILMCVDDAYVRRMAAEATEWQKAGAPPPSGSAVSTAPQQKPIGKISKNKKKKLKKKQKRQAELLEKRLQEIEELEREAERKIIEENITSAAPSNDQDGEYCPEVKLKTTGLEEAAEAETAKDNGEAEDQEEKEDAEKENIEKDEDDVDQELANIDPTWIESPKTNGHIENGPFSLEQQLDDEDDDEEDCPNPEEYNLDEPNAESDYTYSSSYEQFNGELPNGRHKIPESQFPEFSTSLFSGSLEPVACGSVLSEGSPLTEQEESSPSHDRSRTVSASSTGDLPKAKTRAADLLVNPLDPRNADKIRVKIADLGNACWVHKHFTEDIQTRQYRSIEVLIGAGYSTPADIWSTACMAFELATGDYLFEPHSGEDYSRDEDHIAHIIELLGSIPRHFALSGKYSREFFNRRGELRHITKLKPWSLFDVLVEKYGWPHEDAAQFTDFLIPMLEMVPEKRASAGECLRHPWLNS
UniProt P29323, 19-1055 limits assumed: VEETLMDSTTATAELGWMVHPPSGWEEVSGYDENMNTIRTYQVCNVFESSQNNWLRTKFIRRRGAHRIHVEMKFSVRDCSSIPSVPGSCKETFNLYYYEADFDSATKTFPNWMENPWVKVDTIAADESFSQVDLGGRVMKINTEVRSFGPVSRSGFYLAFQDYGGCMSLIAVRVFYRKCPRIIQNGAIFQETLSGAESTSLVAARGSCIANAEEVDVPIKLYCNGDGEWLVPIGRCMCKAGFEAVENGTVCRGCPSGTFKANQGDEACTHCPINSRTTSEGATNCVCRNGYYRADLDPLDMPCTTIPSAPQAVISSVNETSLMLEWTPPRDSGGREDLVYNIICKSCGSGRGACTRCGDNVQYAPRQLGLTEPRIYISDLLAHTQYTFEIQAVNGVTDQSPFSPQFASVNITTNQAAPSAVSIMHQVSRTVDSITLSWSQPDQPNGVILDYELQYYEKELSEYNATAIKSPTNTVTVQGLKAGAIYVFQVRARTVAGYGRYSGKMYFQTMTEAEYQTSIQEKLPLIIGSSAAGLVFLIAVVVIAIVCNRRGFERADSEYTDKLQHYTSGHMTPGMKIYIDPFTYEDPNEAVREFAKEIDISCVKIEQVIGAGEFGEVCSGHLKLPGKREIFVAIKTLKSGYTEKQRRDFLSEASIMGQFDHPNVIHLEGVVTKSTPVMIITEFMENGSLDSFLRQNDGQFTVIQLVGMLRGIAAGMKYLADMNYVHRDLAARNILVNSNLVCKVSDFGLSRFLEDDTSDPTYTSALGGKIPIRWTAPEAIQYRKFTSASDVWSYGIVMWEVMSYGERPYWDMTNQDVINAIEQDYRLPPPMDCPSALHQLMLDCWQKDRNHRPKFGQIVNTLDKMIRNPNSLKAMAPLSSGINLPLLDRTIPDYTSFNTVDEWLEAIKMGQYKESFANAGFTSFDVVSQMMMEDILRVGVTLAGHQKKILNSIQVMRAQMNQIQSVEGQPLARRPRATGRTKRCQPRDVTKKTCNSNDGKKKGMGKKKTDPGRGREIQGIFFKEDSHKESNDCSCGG
UniProt O14965, whole entry: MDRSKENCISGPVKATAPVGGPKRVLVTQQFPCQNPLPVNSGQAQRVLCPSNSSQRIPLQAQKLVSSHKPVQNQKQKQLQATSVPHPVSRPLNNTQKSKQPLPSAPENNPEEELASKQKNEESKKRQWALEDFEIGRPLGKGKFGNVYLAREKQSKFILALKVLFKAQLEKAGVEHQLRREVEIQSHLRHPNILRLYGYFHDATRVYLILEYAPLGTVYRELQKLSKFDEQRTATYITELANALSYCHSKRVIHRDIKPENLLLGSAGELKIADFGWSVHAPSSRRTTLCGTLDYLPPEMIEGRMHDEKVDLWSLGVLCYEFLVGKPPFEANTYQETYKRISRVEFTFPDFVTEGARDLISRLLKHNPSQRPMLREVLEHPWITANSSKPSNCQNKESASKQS
UniProt Q16539, whole entry: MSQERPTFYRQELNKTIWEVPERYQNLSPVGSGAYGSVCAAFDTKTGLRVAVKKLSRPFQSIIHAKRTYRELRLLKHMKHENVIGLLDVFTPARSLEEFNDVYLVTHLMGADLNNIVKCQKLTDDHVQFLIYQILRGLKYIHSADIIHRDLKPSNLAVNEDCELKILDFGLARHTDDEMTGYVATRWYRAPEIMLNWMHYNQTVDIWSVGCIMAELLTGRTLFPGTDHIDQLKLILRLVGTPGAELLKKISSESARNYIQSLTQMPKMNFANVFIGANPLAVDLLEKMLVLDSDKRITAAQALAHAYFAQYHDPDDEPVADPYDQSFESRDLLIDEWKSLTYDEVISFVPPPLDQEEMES

How the values were obtained:
[1] = test system: TC-71 (EWING'S sarcoma) cells; experiment: Cell proliferation assay TC-71 (Alamar Blue); settings: read-out: TC71 EC50; anti-proliferative effect, TC-71 cells, 72 h
[2] = test system: HCT 116 (colorectal carcinoma) cells; experiment: Cell proliferation assay HCT 116 (Alamar Blue); settings: for cellular potency on HCT 116 colorectal cancer cells (in words): HCT 116, proliferation independent from IGF-1R signaling; for pEC50: read-out: HCT 116 EC50, anti-proliferative effect, HCT 116 cells (negative control line), 72 h
[3] = target: AMPK A1/B1/G1 (Homo sapiens, UniProt Q13131); experiment: Z'-LYTE kinase selectivity assay AMPK A1/B1/G1; settings: 1 μM
[4] = target: MAPK8 (JNK1) (Homo sapiens, UniProt P45983); experiment: Z'-LYTE kinase selectivity assay MAPK8; settings: 1 μM
[5] = target: CSNK2A1 (CK2 alpha 1) (Homo sapiens, UniProt P68400); experiment: Z'-LYTE kinase selectivity assay CSNK2A1; settings: 1 μM
[6] = target: MAPKAPK2 (Homo sapiens, UniProt P49137); experiment: Z'-LYTE kinase selectivity assay MAPKAPK2; settings: 1 μM
[7] = target: EGFR (ErbB1) (Homo sapiens, UniProt P00533); experiment: Z'-LYTE kinase selectivity assay EGFR; settings: 1 μM
[8] = target: CHEK1 (CHK1) (Homo sapiens, UniProt O14757); experiment: Z'-LYTE kinase selectivity assay CHEK1; settings: 1 μM
[9] = target: STK3 (MST2) (Homo sapiens, UniProt Q13188); experiment: Z'-LYTE kinase selectivity assay STK3; settings: 1 μM
[10] = target: MAP3K8 (COT) (Homo sapiens, UniProt P41279); experiment: Z'-LYTE kinase selectivity assay MAP3K8; settings: 1 μM
[11] = target: LCK (Homo sapiens, UniProt P06239); experiment: Z'-LYTE kinase selectivity assay LCK; settings: 1 μM
[12] = target: PDK1 Direct (Homo sapiens, UniProt O15530); experiment: Z'-LYTE kinase selectivity assay PDK1; settings: 1 μM
[13] = target: CDK2/cyclin A (Homo sapiens, UniProt P24941); experiment: Z'-LYTE kinase selectivity assay CDK2/cyclin A; settings: 1 μM
[14] = target: standard panel of 30 kinases; experiment: Kinase selectivity panel (SelectScreen Z'-LYTE), number of kinases inhibited; settings: count out of 30 kinases
[15] = target: ACVR1B (ALK4) (Homo sapiens, UniProt P36896); experiment: Z'-LYTE kinase selectivity assay ACVR1B; settings: 1 μM
[16] = target: MYLK2 (skMLCK) (Homo sapiens, UniProt Q9H1R3); experiment: Z'-LYTE kinase selectivity assay MYLK2; settings: 1 μM
[17] = target: TBK1 (Homo sapiens, UniProt Q9UHD2); experiment: Z'-LYTE kinase selectivity assay TBK1; settings: 1 μM
[18] = target: MAP2K1 (MEK1) (Homo sapiens, UniProt Q02750); experiment: Z'-LYTE kinase selectivity assay MAP2K1; settings: 1 μM
[19] = target: ROCK2 (Homo sapiens, UniProt O75116); experiment: Z'-LYTE kinase selectivity assay ROCK2; settings: 1 μM
[20] = target: MAPK9 (JNK2) (Homo sapiens, UniProt P45984); experiment: Z'-LYTE kinase selectivity assay MAPK9; settings: 1 μM
[21] = target: CSNK1A1 (CK1 alpha 1) (Homo sapiens, UniProt P48729); experiment: Z'-LYTE kinase selectivity assay CSNK1A1; settings: 1 μM
[22] = target: AKT2 (PKB beta) (Homo sapiens, UniProt P31751); experiment: Z'-LYTE kinase selectivity assay AKT2; settings: 1 μM
[23] = target: SRPK2 (Homo sapiens, UniProt P78362); experiment: Z'-LYTE kinase selectivity assay SRPK2; settings: 1 μM
[24] = target: CAMK2D (CaMKII delta) (Homo sapiens, UniProt Q13557); experiment: Z'-LYTE kinase selectivity assay CAMK2D; settings: 1 μM
[25] = target: GSK3B (GSK3 beta) (Homo sapiens, UniProt P49841); experiment: Z'-LYTE kinase selectivity assay GSK3B; settings: 1 μM
[26] = target: EPHB2 (Homo sapiens, UniProt P29323); experiment: Z'-LYTE kinase selectivity assay EPHB2; settings: 1 μM
[27] = target: FRAP1 (mTOR) (Homo sapiens, UniProt P42345); experiment: Z'-LYTE kinase selectivity assay FRAP1 (mTOR); settings: 1 μM
[28] = target: FGFR1 (Homo sapiens, UniProt P11362); experiment: Z'-LYTE kinase selectivity assay FGFR1; settings: 1 μM
[29] = target: RAF1 (cRAF) Y340D Y341D (Homo sapiens, UniProt P04049, Y340D/Y341D); experiment: Z'-LYTE kinase selectivity assay RAF1; settings: 1 μM
[30] = target: PAK4 (Homo sapiens, UniProt O96013); experiment: Z'-LYTE kinase selectivity assay PAK4; settings: 1 μM
[31] = target: STK6 (AURKA (Aurora A)) (Homo sapiens, UniProt O14965); experiment: Z'-LYTE kinase selectivity assay STK6; settings: 1 μM
[32] = target: NEK2 (Homo sapiens, UniProt P51955); experiment: Z'-LYTE kinase selectivity assay NEK2; settings: 1 μM
[33] = target: ABL1 (Homo sapiens, UniProt P00519); experiment: Z'-LYTE kinase selectivity assay ABL1; settings: 1 μM
[34] = target: PRKACA (PKA) (Homo sapiens, UniProt P17612); experiment: Z'-LYTE kinase selectivity assay PRKACA; settings: 1 μM
[35] = target: MAPK14 (p38 alpha) (Homo sapiens, UniProt Q16539); experiment: Z'-LYTE kinase selectivity assay MAPK14; settings: 1 μM

Compound: CN(C)C1CCN(CCn2ccc(Nc3ncc4c(n3)-c3c(nn(C)c3-c3ccccc3)CC4)n2)CC1
- pEC50 [1]: 8.44
- cellular potency on HCT 116 colorectal cancer cells (in words) [2]: relatively high cellular potency
- pEC50 [2]: 6.53

Compound: COCCN1CCN(CCn2ccc(Nc3ncc4c(n3)-c3c(nn(C)c3-c3ccccc3)CC4)n2)CC1
- AMPK A1B1G1 % inhibition [3]: 52%
- MAPK8 % inhibition [4]: 61%
- CSNK2A1 % inhibition [5]: 29%
- MAPKAPK2 % inhibition [6]: 9%
- EGFR % inhibition [7]: 55%
- CHEK1 % inhibition [8]: 28%
- STK3 % inhibition [9]: −15%
- MAP3K8 % inhibition [10]: 78%
- LCK % inhibition [11]: 86%
- PDK1 % inhibition [12]: 17%
- CDK2/CYCLINA % inhibition [13]: 77%
- # kinases inhibited >50% @ 1 μM [14]: 12/30
- ACVR1B % inhibition [15]: −16%
- MYLK2 % inhibition [16]: 36%
- TBK1 % inhibition [17]: 78%
- MAP2K1 % inhibition [18]: 93%
- ROCK2 % inhibition [19]: −18%
- MAPK9 % inhibition [20]: 59%
- CSNK1A1 % inhibition [21]: 11%
- pEC50 [1]: 8.28
- AKT2 % inhibition [22]: 8%
- SRPK2 % inhibition [23]: 7%
- cellular potency on HCT 116 colorectal cancer cells (in words) [2]: relatively high cellular potency
- pEC50 [2]: 6.29
- CAMK2D % inhibition [24]: 55%
- GSK3B % inhibition [25]: 33%
- EPHB2 % inhibition [26]: 72%
- FRAP1 (MTOR) % inhibition [27]: 6%
- FGFR1 % inhibition [28]: 50%
- RAF1 % inhibition [29]: 90%
- PAK4 % inhibition [30]: 61%
- STK6 (Aur A) % inhibition [31]: 76%
- NEK2 % inhibition [32]: 11%
- ABL1 % inhibition [33]: 24%
- PRKACA % inhibition [34]: 18%
- MAPK14 % inhibition [35]: 11%

Compound: Cn1nc2c(c1-c1ccccc1)-c1nc(Nc3ccn(CCN4CCN(CCO)CC4)n3)ncc1CC2
- AMPK A1B1G1 % inhibition [3]: 62%
- CSNK2A1 % inhibition [5]: 27%
- MAPKAPK2 % inhibition [6]: 12%
- EGFR % inhibition [7]: 74%
- CHEK1 % inhibition [8]: 34%
- STK3 % inhibition [9]: −4%
- MAP3K8 % inhibition [10]: 81%
- LCK % inhibition [11]: 89%
- PDK1 % inhibition [12]: 20%
- CDK2/CYCLINA % inhibition [13]: 84%
- # kinases inhibited >50% @ 1 μM [14]: 13/30
- ACVR1B % inhibition [15]: −14%
- MYLK2 % inhibition [16]: 48%
- TBK1 % inhibition [17]: 81%
- MAP2K1 % inhibition [18]: 96%
- ROCK2 % inhibition [19]: −11%
- CSNK1A1 % inhibition [21]: 14%
- pEC50 [1]: 8.01
- AKT2 % inhibition [22]: 7%
- SRPK2 % inhibition [23]: 11%
- cellular potency on HCT 116 colorectal cancer cells (in words) [2]: relatively high cellular potency
- pEC50 [2]: 6.20
- CAMK2D % inhibition [24]: 59%
- GSK3B % inhibition [25]: 32%
- EPHB2 % inhibition [26]: 77%
- FRAP1 (MTOR) % inhibition [27]: 15%
- FGFR1 % inhibition [28]: 59%
- RAF1 % inhibition [29]: 92%
- PAK4 % inhibition [30]: 60%
- STK6 (Aur A) % inhibition [31]: 72%
- NEK2 % inhibition [32]: 18%
- ABL1 % inhibition [33]: 44%
- PRKACA % inhibition [34]: 17%
- MAPK14 % inhibition [35]: 46%

pEC50: −log10 of the molar value.
